{"source": "patent US8802596B2", "about": "“Multi-functional ionic liquid compositions for overcoming polymorphism and imparting improved properties for active pharmaceutical, biological, nutritional, and energetic ingredients” (Board of Trustees of the University of Alabama, priority 2005, dated 2014)", "details": "in words"}
{"substance": "didecyldimethylammonium N-[4-[[(2-amino-1,4-dihydro-4-oxo-6-pteridinyl)methyl]amino]benzoyl]-L-glutamate", "values": [{"measurement": "Solubility / miscibility in water", "value": "lacks miscibility with water and hexane"}, {"measurement": "Solubility in organic solvents / other media", "value": "soluble in chloroform, acetone, DMSO"}]}
